Test results as given in patent publication US10449216B2, “Modulating drug effects against metabotropic glutamate receptor with extracellular calcium” (GEORGIA STATE UNIVERSITY RESEARCH FOUNDATION, INC., priority 2013, dated 2019).

Amino acid sequences for entries named in this document (tags omitted). Residues count along the entry.
UniProt P23385, 19-1199: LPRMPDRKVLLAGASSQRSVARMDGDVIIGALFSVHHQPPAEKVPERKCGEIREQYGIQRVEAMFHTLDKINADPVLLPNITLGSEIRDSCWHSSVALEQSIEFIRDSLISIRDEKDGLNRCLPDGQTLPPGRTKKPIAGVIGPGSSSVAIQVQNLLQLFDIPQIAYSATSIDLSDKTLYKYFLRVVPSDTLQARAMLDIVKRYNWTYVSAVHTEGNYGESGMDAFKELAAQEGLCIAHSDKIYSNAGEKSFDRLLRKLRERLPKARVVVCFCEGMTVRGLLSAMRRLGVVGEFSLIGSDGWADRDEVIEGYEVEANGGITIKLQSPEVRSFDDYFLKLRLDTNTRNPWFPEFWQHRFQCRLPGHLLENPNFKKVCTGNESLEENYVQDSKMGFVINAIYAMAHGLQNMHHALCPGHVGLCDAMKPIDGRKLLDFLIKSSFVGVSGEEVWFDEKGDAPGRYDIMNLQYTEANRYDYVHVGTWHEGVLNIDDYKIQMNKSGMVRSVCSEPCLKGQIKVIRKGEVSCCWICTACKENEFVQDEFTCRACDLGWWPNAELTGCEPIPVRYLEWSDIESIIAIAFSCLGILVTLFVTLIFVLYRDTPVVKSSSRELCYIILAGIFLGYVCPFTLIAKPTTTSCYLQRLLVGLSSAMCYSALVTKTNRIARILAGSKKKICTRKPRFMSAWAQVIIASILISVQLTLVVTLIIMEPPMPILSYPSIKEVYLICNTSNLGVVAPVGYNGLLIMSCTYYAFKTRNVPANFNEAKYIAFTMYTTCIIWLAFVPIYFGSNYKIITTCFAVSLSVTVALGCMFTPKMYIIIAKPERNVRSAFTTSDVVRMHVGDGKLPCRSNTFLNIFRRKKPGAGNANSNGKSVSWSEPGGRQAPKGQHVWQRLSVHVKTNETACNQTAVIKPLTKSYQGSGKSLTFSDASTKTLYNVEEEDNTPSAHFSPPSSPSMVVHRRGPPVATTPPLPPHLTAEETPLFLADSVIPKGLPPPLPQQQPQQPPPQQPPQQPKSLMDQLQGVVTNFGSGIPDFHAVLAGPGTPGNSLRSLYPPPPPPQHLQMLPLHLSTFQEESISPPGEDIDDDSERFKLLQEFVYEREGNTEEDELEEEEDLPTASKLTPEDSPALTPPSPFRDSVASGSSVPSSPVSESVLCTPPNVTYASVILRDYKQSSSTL
UniProt P23385, 19-1199 D322I: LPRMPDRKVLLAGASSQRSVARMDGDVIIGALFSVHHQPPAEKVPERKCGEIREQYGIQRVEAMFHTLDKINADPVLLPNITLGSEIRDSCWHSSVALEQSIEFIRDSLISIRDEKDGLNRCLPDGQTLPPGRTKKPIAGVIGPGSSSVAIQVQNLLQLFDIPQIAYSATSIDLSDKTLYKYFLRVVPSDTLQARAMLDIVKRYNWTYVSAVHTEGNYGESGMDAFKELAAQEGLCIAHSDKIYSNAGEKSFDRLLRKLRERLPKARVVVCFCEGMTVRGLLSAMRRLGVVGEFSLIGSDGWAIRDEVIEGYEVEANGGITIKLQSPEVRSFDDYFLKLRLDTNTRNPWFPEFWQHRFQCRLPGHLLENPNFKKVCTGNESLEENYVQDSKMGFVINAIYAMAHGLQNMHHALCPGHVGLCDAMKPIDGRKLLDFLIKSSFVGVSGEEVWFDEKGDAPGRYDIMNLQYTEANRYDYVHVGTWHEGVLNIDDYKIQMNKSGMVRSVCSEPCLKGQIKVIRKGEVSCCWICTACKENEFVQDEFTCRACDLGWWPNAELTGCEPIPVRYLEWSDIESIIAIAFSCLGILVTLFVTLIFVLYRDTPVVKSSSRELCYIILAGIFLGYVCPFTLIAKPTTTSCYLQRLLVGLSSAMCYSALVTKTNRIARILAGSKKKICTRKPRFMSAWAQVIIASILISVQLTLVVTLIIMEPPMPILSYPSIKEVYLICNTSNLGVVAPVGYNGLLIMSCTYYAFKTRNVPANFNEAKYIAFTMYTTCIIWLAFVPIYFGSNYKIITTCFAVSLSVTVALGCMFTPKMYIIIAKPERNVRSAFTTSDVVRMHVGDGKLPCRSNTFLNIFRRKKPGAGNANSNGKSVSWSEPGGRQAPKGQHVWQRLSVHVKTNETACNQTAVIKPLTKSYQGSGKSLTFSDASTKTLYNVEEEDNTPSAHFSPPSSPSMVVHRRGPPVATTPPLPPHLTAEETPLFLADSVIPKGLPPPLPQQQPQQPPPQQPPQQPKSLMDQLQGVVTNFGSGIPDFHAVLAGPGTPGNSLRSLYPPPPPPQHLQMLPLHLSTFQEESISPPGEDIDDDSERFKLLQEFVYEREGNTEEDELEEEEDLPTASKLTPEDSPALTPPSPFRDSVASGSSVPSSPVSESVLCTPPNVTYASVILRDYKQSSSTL
UniProt P23385, 19-1199 E325I: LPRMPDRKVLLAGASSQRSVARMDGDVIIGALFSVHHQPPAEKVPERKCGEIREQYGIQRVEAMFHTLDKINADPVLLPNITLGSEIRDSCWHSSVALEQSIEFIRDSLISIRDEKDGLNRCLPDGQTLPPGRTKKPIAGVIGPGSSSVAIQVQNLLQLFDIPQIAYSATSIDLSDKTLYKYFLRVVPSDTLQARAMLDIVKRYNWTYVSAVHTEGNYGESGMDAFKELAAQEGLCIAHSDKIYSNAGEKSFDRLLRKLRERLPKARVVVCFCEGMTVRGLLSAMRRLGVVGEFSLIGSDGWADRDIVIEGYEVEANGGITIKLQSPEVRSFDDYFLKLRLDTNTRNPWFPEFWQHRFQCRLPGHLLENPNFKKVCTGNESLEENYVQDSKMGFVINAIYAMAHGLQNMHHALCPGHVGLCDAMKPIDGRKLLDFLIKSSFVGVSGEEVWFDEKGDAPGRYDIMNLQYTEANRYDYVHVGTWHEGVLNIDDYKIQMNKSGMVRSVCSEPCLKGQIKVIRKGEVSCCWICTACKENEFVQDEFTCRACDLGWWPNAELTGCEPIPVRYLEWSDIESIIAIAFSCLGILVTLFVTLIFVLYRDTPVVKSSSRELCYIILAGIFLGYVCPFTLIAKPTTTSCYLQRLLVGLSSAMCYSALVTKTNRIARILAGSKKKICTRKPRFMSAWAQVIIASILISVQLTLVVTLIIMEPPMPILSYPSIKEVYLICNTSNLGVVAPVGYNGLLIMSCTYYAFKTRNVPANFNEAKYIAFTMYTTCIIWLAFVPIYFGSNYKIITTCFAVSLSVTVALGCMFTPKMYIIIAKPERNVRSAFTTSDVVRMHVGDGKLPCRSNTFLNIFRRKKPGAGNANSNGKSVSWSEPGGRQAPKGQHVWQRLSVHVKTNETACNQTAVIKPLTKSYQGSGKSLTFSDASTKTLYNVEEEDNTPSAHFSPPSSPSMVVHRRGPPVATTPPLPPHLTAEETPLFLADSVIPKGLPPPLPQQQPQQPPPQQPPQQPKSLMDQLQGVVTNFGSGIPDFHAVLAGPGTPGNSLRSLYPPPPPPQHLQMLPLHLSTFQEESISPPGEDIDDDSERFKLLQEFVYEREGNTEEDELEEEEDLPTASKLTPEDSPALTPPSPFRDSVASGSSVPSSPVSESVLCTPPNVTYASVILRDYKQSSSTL

Key:
mGluR1 = mGluR1 (Rattus norvegicus, UniProt P23385); conditions: mGluR1, Sp. Rn; cited from earlier work
WT mGluR1α [1] = biological target: T1, WT mGluR1α (Rattus norvegicus, UniProt P23385); assay: Single cell Fura-2 [Ca^2+]i response in HEK293 cells transiently transfected with WT mGluR1α; type: cell-based; conditions: EC50 of L-Quis
T1 construct: expressed in transfected cells; host or cells: HEK293

WT mGluR1α [2] = biological target: T1, WT mGluR1α; assay: [^3H]-L-Quis binding to membranes of HEK293 cells expressing WT mGluR1α
mGluR1α D322I = mGluR1α D322I (Rattus norvegicus, UniProt P23385, D322I); assay: cell-based; conditions: EC50 of L-Quis, [Ca^2+]i response
mGluR1α E325I = mGluR1α E325I (Rattus norvegicus, UniProt P23385, E325I); assay: cell-based; conditions: EC50 of L-Quis, [Ca^2+]i response

N[C@@H](Cn1oc(=O)[nH]c1=O)C(=O)O [L-Quis, L-Quisqualate]
Affinity (pKi) (mGluR1): 7.5-8.0 pKi
EC50 (WT mGluR1α [1]; [Ca^2+]o 0 mM): 12.8 nM and 12.6 nM
EC50 (WT mGluR1α [1]; [Ca^2+]o 1.8 mM): 2.8 nM
Kd (WT mGluR1α [2]): ~30 nM
EC50 (mGluR1α D322I; [Ca^2+]o 0 mM): 12.4 nM
EC50 (mGluR1α D322I; [Ca^2+]o 1.8 mM): 3.2 nM
EC50 (mGluR1α E325I; [Ca^2+]o 0 mM): 20 nM and 20.6 nM
EC50 (mGluR1α E325I; [Ca^2+]o 1.8 mM): 7.6 nM

Several values for one entry are separate records, joined by “and”; a condition that tells them apart may be missing. Identical values can stand only once.
